{"source": "PubChem BioAssay AID624354", "about": "(Sanford-Burnham Center for Chemical Genomics, 2012)", "note": "The entries are a selection whose mix differs from that of the whole data set. Active and inactive are the calls of the source.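 How the source made its calls: active means compounds causing at least 50% loss of cell viability in the single-dose screen, relative to plate controls; inactive means the rest.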"}
{"assay": "TRAIL-exposed caspase-8 expressing cell killing – NB7+C8 cells, ATPlite luminescence, TRAIL sensitizer project, primary screen (AID 624354)", "details": "at 10 µM, hits give high values"}
{"smiles": "N#CC1(Nc2ccccc2)CCN(Cc2ccccc2)CC1", "inhibition (viability loss, TRAIL sensitization)": "inactive: 13.9%"}
{"smiles": "O=C(NCC1(N2CCCCC2)CCCCC1)c1ccc(Cl)s1", "inhibition (viability loss, TRAIL sensitization)": "inactive: 1.34%"}
{"smiles": "O=C(OC1CN2CCC1CC2)C1c2ccccc2Oc2ccccc21", "note": "(centres undefined)", "inhibition (viability loss, TRAIL sensitization)": "inactive: -12.3%"}
{"smiles": "O=c1[nH]c2ccccc2n1C1CCN(C(c2cc3ccccc3o2)c2nnnn2C2CCCCC2)CC1", "note": "(centres undefined)", "inhibition (viability loss, TRAIL sensitization)": "inactive: 37.7%"}
{"smiles": "COc1ccc(Cl)cc1C(=O)NCC1(N2CCOCC2)CCCCC1", "inhibition (viability loss, TRAIL sensitization)": "inactive: -9.84%"}
{"smiles": "CCOC(=O)N1CCC(Nc2ccc(OC)cc2)CC1", "inhibition (viability loss, TRAIL sensitization)": "inactive: -1.71%"}
{"smiles": "CCCCn1nnnc1C(c1ccc(OC)cc1)N1CCC(n2c(=O)[nH]c3ccccc32)CC1", "note": "(centres undefined)", "inhibition (viability loss, TRAIL sensitization)": "inactive: 6.54%"}
{"smiles": "CCOc1ncccc1C(=O)NCC1(N2CCOCC2)CCCCC1", "inhibition (viability loss, TRAIL sensitization)": "inactive: 2.12%"}
{"smiles": "CN1CCC(Nc2ccc(F)c(Cl)c2)CC1", "inhibition (viability loss, TRAIL sensitization)": "inactive: 7.04%"}
{"smiles": "CC(C)(C)OC(=O)N1CCC(Nc2ccccc2)CC1", "inhibition (viability loss, TRAIL sensitization)": "inactive: 1.27%"}
{"smiles": "O=C(O)C1(Nc2ccccc2)CCN(Cc2ccccc2)CC1", "inhibition (viability loss, TRAIL sensitization)": "inactive: 7.93%"}
{"smiles": "NN(c1ccccc1)C1CCN(CCc2ccccc2)CC1", "inhibition (viability loss, TRAIL sensitization)": "inactive: -13.6%"}
{"smiles": "O=c1[nH]c2ccccc2n1C1CCN(C(c2cc3ccccc3o2)c2nnnn2C2CCCC2)CC1", "note": "(centres undefined)", "inhibition (viability loss, TRAIL sensitization)": "inactive: 17.9%"}
{"smiles": "CCCOc1ccc(C(=O)NCC2(N(C)C)CCCCC2)cc1", "inhibition (viability loss, TRAIL sensitization)": "inactive: -22.1%"}
{"smiles": "COc1cccc(C(c2nnnn2C2CCCC2)N2CCC(n3c(=O)[nH]c4ccccc43)CC2)c1OC", "note": "(centres undefined)", "inhibition (viability loss, TRAIL sensitization)": "inactive: -9.79%"}
{"smiles": "COc1cc(OC)cc(C(=O)NCC2(N3CCOCC3)CCCCC2)c1", "inhibition (viability loss, TRAIL sensitization)": "inactive: -1.72%"}
{"smiles": "COc1cccc(C(=O)N(c2cc(C)cc(C)c2)C2CCN(C(=O)OC(C)(C)C)CC2)c1", "inhibition (viability loss, TRAIL sensitization)": "inactive: -12.5%"}
{"smiles": "CCC(CO)(C(=O)OC1CN2CCC1CC2)c1ccccc1", "note": "(centres undefined)", "inhibition (viability loss, TRAIL sensitization)": "inactive: -0.194%"}
{"smiles": "CN1CCC(Nc2ccc(Cl)cc2)CC1", "inhibition (viability loss, TRAIL sensitization)": "inactive: -16.4%"}
{"smiles": "COc1cccc(C(c2nnnn2C2CCCCC2)N2CCC(n3c(=O)[nH]c4ccccc43)CC2)c1OC", "note": "(centres undefined)", "inhibition (viability loss, TRAIL sensitization)": "inactive: 18.2%"}
{"smiles": "CC(=O)N(c1ccccc1)C1CCNCC1", "inhibition (viability loss, TRAIL sensitization)": "inactive: 1.37%"}
{"smiles": "CCC(c1nnnn1C1CCCCC1)N1CCC(n2c(=O)[nH]c3ccccc32)CC1", "note": "(centres undefined)", "inhibition (viability loss, TRAIL sensitization)": "inactive: 7.66%"}
{"smiles": "COc1cc(OC)cc(C(=O)NCC2(N3CCCCC3)CCCCC2)c1", "inhibition (viability loss, TRAIL sensitization)": "inactive: 0.419%"}
{"smiles": "O=c1[nH]c2ccccc2n1C1CCN(C(c2ccnc3ccccc23)c2nnnn2C2CCCCC2)CC1", "note": "(centres undefined)", "inhibition (viability loss, TRAIL sensitization)": "inactive: 4.46%"}
{"smiles": "Cc1ccc(C(=O)NCC2(N3CCCCC3)CCCCC2)o1", "inhibition (viability loss, TRAIL sensitization)": "inactive: -2.29%"}
{"smiles": "Fc1ccccc1NC1CCN(Cc2ccccc2)CC1", "inhibition (viability loss, TRAIL sensitization)": "inactive: -4%"}
{"smiles": "Cc1ccc(NC2(C#N)CCN(Cc3ccccc3)CC2)cc1", "inhibition (viability loss, TRAIL sensitization)": "inactive: -1.94%"}
{"smiles": "Cc1ccccc1NC1(C#N)CCN(Cc2ccccc2)CC1", "inhibition (viability loss, TRAIL sensitization)": "inactive: -0.941%"}
{"smiles": "COc1ccc(C(c2nnnn2C2CCCCC2)N2CCC(n3c(=O)[nH]c4ccccc43)CC2)cc1", "note": "(centres undefined)", "inhibition (viability loss, TRAIL sensitization)": "inactive: 6.18%"}
{"smiles": "CCN1CCC(Nc2cccc(F)c2)CC1", "inhibition (viability loss, TRAIL sensitization)": "inactive: -1.65%"}
{"smiles": "CC(C)(C)n1nnnc1C(c1ccnc2ccccc12)N1CCC(n2c(=O)[nH]c3ccccc32)CC1", "note": "(centres undefined)", "inhibition (viability loss, TRAIL sensitization)": "inactive: -2.46%"}
{"smiles": "O=C(NCC1(N2CCCCC2)CCCCC1)c1ccco1", "inhibition (viability loss, TRAIL sensitization)": "inactive: 4.61%"}
{"smiles": "CN(C)c1ccc(C(=O)NCC2(N3CCCCC3)CCCCC2)cc1", "inhibition (viability loss, TRAIL sensitization)": "inactive: 5.46%"}
{"smiles": "Cn1c(=O)[nH]cc(N(CCCl)CCCl)c1=O", "inhibition (viability loss, TRAIL sensitization)": "inactive: -6.2%"}
{"smiles": "N#Cc1ccc(C(=O)NCC2(N3CCCCC3)CCCCC2)cc1", "inhibition (viability loss, TRAIL sensitization)": "inactive: 1.22%"}
{"smiles": "CC(C)(C)OC(=O)N1CCC(N(C(=O)c2ccccc2)c2ccc(Cl)cc2)CC1", "inhibition (viability loss, TRAIL sensitization)": "inactive: -3.91%"}
{"smiles": "CN(C)C1(CNC(=O)c2cccc(C#N)c2)CCCCC1", "inhibition (viability loss, TRAIL sensitization)": "inactive: -24.7%"}
{"smiles": "c1ccc(CN2CCC(Nc3ccccc3)CC2)cc1", "inhibition (viability loss, TRAIL sensitization)": "inactive: 4.04%"}
{"smiles": "O=c1[nH]c2ccccc2n1C1CCN(C(c2ccccc2)c2nnnn2C2CCCC2)CC1", "note": "(centres undefined)", "inhibition (viability loss, TRAIL sensitization)": "inactive: -13.5%"}
{"smiles": "CCCN1CCC(Nc2cc(OC)cc(OC)c2)CC1", "inhibition (viability loss, TRAIL sensitization)": "inactive: -5.58%"}
{"smiles": "Cc1cc(N(CCCl)CCCl)ccc1C=O", "inhibition (viability loss, TRAIL sensitization)": "inactive: -15.5%"}
{"smiles": "CC(C)(C)n1nnnc1C(c1cccc2ccccc12)N1CCC(n2c(=O)[nH]c3ccccc32)CC1", "note": "(centres undefined)", "inhibition (viability loss, TRAIL sensitization)": "inactive: 3.74%"}
{"smiles": "CCCCn1nnnc1C(c1ccccc1)N1CCC(n2c(=O)[nH]c3ccccc32)CC1", "note": "(centres undefined)", "inhibition (viability loss, TRAIL sensitization)": "inactive: 7.38%"}
{"smiles": "COc1cc(C(=O)NCC2(N3CCOCC3)CCCCC2)cc(OC)c1C", "inhibition (viability loss, TRAIL sensitization)": "inactive: -22.5%"}
{"smiles": "O=C(NCC1(N2CCOCC2)CCCCC1)c1cc(Br)ccc1Cl", "inhibition (viability loss, TRAIL sensitization)": "inactive: -1.93%"}
{"smiles": "O=c1[nH]c2ccccc2n1C1CCN(C(c2cccs2)c2nnnn2C2CCCCC2)CC1", "note": "(centres undefined)", "inhibition (viability loss, TRAIL sensitization)": "inactive: -0.569%"}
{"smiles": "COc1ccc(C(=O)NCC2(N3CCOCC3)CCCCC2)cc1OC", "inhibition (viability loss, TRAIL sensitization)": "inactive: -6.93%"}
{"smiles": "O=c1[nH]c2ccccc2n1C1CCN(C(c2ccnc3ccccc23)c2nnnn2C2CCCC2)CC1", "note": "(centres undefined)", "inhibition (viability loss, TRAIL sensitization)": "inactive: -0.195%"}
{"smiles": "CCOC(=O)N1CCC(Nc2ccc(C)cc2)CC1", "inhibition (viability loss, TRAIL sensitization)": "inactive: 1.01%"}
{"smiles": "COc1cccc(C(c2nnnn2C(C)(C)C)N2CCC(n3c(=O)[nH]c4ccccc43)CC2)c1OC", "note": "(centres undefined)", "inhibition (viability loss, TRAIL sensitization)": "inactive: 1.73%"}
{"smiles": "N/C(=N\\O)c1c(N)no[n+]1[O-]", "inhibition (viability loss, TRAIL sensitization)": "inactive: 4.4%"}
{"smiles": "O=C(OC1CN2CCC1CC2)C1c2ccccc2C=Cc2ccccc21", "note": "(centres undefined)", "inhibition (viability loss, TRAIL sensitization)": "inactive: -4.69%"}
{"smiles": "O=c1[nH]c2ccccc2n1C1CCN(C(c2cccs2)c2nnnn2C2CCCC2)CC1", "note": "(centres undefined)", "inhibition (viability loss, TRAIL sensitization)": "inactive: 0.824%"}
{"smiles": "CCCCn1nnnc1C(c1cccc(OC)c1OC)N1CCC(n2c(=O)[nH]c3ccccc32)CC1", "note": "(centres undefined)", "inhibition (viability loss, TRAIL sensitization)": "inactive: -3.98%"}
